# Source: PubChem (National Center for Advancing Translational Sciences (NCATS))
# Nrf2 inh: blocks Nrf2 signaling. Potency, µM (doses to about 46 µM), for inactives: at the top dose activity change, negative = inhibition, most hits filed as inhibitors. hit rate 2.1% among 360,000. A549 ARE-Fluc reporter, luciferase luminescence, 18-24 h; also: potency is read from the fitted curve at half-maximal effect; % is scaled to controls: 0 for no effect and ±100 for the full control effect; nearly all actives have a fitted effect of over 60% in size
#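 Nrf2 activity is the BugLite luminescence, read 15 min after reagent at room temperature, following CellTiter-Fluor cytotoxicity readout (30 min, 37C). Compound titrations were applied for 18-24 h to 5000 A549 ARE_Fluc cells/well in 5% FBS OPTI-MEM.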
# PI4K2A inh: inhibitors of human PI4K2A; hit rate 0.13% among 420,000; activity change, negative = inhibition, % at 76.9 µM; Q9BTU6; purified PI4K2A, ADP-Glo luminescence, 1 h; stronger effect = lower value; in the data active = activity change below about -50%; inconclusive = mostly about -30% to -49%;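 also: -100% = wells without enzyme as full effect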
#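 PI4K2A activity was measured by ADP-Glo luminescence: enzyme (4 ug/mL stock) and phosphatidylinositol (1.2 mM stock) in Tris pH 7.5/MgCl2/EGTA/Triton X-100 buffer were reacted with ATP (300 microM stock) for one hour at ambient temperature.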
# miR-21 reporter: miR-21 reporter, rising signal; HeLa miR-21 FLuc reporter, luciferase, 48 h; Potency, µM (highest dose often 38.3 µM), for the others: top-dose reporter change, positive = more light; 340,000 tested, under 10 active; AID 2288; active = well fitted rising curve with a large enough effect; inconclusive = small, poorly fitted or top-dose-only effect; inactive = no such curve, though single readings can be large or run the other way;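 further: % of control where 0% means no effect; miR-21 action dims this reporter so a rising signal means less miR-21 action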
#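 HeLa cells stably expressing CMV-driven firefly luciferase with a downstream miR-21 binding sequence, endogenously expressing miR-21, were treated with titrations (up to about 40uM final) for 48 hours at 37 degree Celsius. Luciferase luminescence was read after lysis.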
# A549 viability: counter-screen for Nrf2 inhibitors: cytotoxicity in A549 cells; A549 ARE-Fluc cells, CellTiter-Fluor viability, 18-24 h; Potency, µM (top dose mostly 46 µM), without a hit: at the top dose activity change, negative = cytotoxicity, usual class: inhibitors; hit rate 0.16% among 390,000; AID 504648; also: potency is read from the fitted curve at half-maximal effect; % is scaled to controls: 0 for no effect and ±100 for the full control effect
#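 A549 ARE-Fluc cells in 5% FBS OPTI-MEM, 5000 cells/well, rested 2 h then exposed to compounds in concentration-response for 18-24 h at 37 °C. Viability by CellTiter-Fluor fluorescence (Ex 405/Em 525) after 30 min; luciferase luminescence (BugLite, 15 min, RT) read afterwards.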
# Nrf2 ARE act: activates Nrf2 signaling. hit rate 0.31% among 410,000. Potency, µM (series often up to 46.1 µM), without a hit: top-dose activation, actives largely listed as activators. AREc32 ARE-luciferase reporter (MCF7-derived line), luminescence, 24 h; also: potency is read from the fitted curve at half-maximal effect; % of control where 0% means no effect; nearly all actives have a fitted effect of over 65% in size
#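 Luminescent ARE reporter assay in AREc32_Fluc cells: overnight plating at 37 deg C, 24 hr compound incubation, Steady-Glo added, 30 min RT before reading.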
# GALK inhibitor: blocks human galactokinase activity. P51570. Potency, µM (highest dose often 57.5 µM), without a hit: at the top dose activity change, negative = inhibition, most hits filed as inhibitors. Purified GALK, Kinase-Glo residual ATP luminescence. hit rate 0.007% among 270,000; also: potency is read from the fitted curve at half-maximal effect; % is scaled to controls: 0 for no effect and ±100 for the full control effect
#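 Compounds were pin-transferred into ATP buffer (35 uM final), then GALK plus galactose (5 nM, 100 uM final) was added. After 1 h at room temperature, Kinase-Glo Plus was added and luminescence read after 10 min.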
# Active calls of the source: *; ? = inconclusive; · = no result. In the library only some 2.2% were active in any assay of this set; here they are far more common. Unless noted, calls follow the shape of the dose curve; as a rule, active = well fitted curve in the direction sought with a large enough effect; inconclusive = small, poorly fitted or top-dose-only effect, or another doubt; inactive = no such curve, though single readings can be large; an effect the other way counts as inactive or inconclusive.
# Short forms – A = Nrf2 inh; B = PI4K2A inh; C = miR-21 reporter; D = A549 viability; E = Nrf2 ARE act; F = GALK inhibitor
Compound: Oc1ccc(N=Nc2ccc3c(c2)OCCO3)c2ncccc12
  A = 18µM*; B = -4; C = 8%; D = ?; E = 11%; F = 1%
Compound: CCCn1c(CN2CCN(c3cccc(Cl)c3)CC2)nc2c1c(=O)n(C)c(=O)n2C
  A = 18µM*; B = -5; C = 10%; D = -26%; E = 0%; F = 1%
Compound: CN(C(=O)CCn1nnc(-c2cccs2)n1)C1CCCCC1
  A = ·; B = -2; C = ·; D = ·; E = ·; F = ·
Compound: CSc1ncc(Cl)c(C(=O)Nc2cccnc2)n1
  A = 2%; B = -1; C = -6%; D = -6%; E = 11µM*; F = 4%
Compound: CSc1ncc(Cl)c(C(=O)Nc2ccc(NC(C)=O)cc2)n1
  A = -3%; B = -2; C = -1%; D = 1%; E = 0%; F = -2%
Compound: CCCc1cc(=O)[nH]c(Nc2ccccc2O)n1
  A = 0%; B = -1; C = -2%; D = 0%; E = 11µM*; F = ·
Compound: CCNc1cccc(S(=O)(=O)N2CCN(S(=O)(=O)c3ccc4c(c3)OCCO4)CC2)c1
  A = ?; B = ·; C = ·; D = -8%; E = ·; F = ·
Compound: Cc1nc(-c2ccc(S(=O)(=O)Nc3ccc(C)c(C)c3)s2)cs1
  A = -14%; B = ·; C = ·; D = 5%; E = ·; F = ·
Compound: C=CC[C@@H](CC(=O)N(CCO)Cc1ccccc1)C(=O)NC[C@@H](OC(=O)[C@@H](CC=C)Cc1ccc(F)cc1)c1ccccc1
  A = 0%; B = 2; C = ·; D = -5%; E = -1%; F = ·
Compound: C=CC[C@H](CC(=O)N(CCO)Cc1ccccc1)C(=O)NC[C@H](OC(=O)[C@@H](CC=C)Cc1ccc(F)cc1)c1ccccc1
  A = 18µM*; B = 4; C = ·; D = ?; E = -5%; F = ·
Compound: C=CC[C@@H](CC(=O)NCCO)C(=O)NC[C@H](OC(=O)[C@@H](CC=C)Cc1ccc(F)cc1)c1ccccc1
  A = -9%; B = -52*; C = ·; D = -12%; E = -1%; F = ·
Compound: CC(/C=N/n1cnnc1)=C\c1ccco1
  A = 12%; B = -5; C = -9%; D = -1%; E = 11µM*; F = -4%
Compound: CC(/C=N/n1c(-c2cc(C)[nH]n2)n[nH]c1=S)=C\c1ccco1
  A = -9%; B = -1; C = 1%; D = -12%; E = 5%; F = 4%
Compound: CC(/C=N/n1c(-c2ccc(Cl)cc2)n[nH]c1=S)=C\c1ccco1
  A = 13%; B = -5; C = 7%; D = -7%; E = 2.8µM*; F = -1%
Compound: O=C(NNC(=O)C12CC3CC(CC(C3)C1)C2)c1cccc([N+](=O)[O-])c1
  A = -9%; B = 0; C = -7%; D = -5%; E = 10µM*; F = -2%
Compound: CC1(C(=O)NNC(=O)c2cccc([N+](=O)[O-])c2)CC1Br (stereo unspecified)
  A = ·; B = 1; C = ·; D = ·; E = 6%; F = ·
Compound: CC(C)C1C(=O)Nc2ccc(S(=O)(=O)NCc3ccc(Cl)cc3)cc21 (stereo unspecified)
  A = 21µM*; B = 5; C = 11%; D = 2%; E = -1%; F = ·
Compound: CC(C)Oc1cccc(-c2n[nH]c(=S)n2N=Cc2cccc([N+](=O)[O-])c2)c1
  A = ·; B = 7; C = ·; D = ·; E = ·; F = ·
Compound: CCCC(=O)NC(=S)Nc1ccc(S(=O)(=O)N2CCc3ccccc32)cc1
  A = 21µM*; B = -5; C = ·; D = -14%; E = -1%; F = ·
Compound: NS(=O)(=O)c1ccc(NC(=O)c2ccc(S(=O)(=O)N3CCc4ccccc43)cc2)cc1
  A = -7%; B = 0; C = 7%; D = 0%; E = 2%; F = 3%
Compound: COc1ccc(N(C)C(=O)c2cc(S(=O)(=O)N3CCc4ccccc43)cn2C)c(OC)c1
  A = 18µM*; B = -2; C = 0%; D = ?; E = 0%; F = ·
Compound: COc1ccc(C(=O)Nc2ccc(S(=O)(=O)N3CCc4ccccc43)cc2)cc1
  A = 15µM*; B = 1; C = ·; D = -10%; E = 3%; F = ·
Compound: O=S(=O)(c1ccccc1)N1CCCc2ccccc21
  A = ·; B = ·; C = 3%; D = ·; E = ·; F = 6%
Compound: O=S(=O)(NC1CC1)c1ccc(S(=O)(=O)N2CCCc3ccccc32)cc1
  A = 23µM*; B = -3; C = 14%; D = -16%; E = 0%; F = 2%
Compound: Cn1c(=O)cc(OCCCC(=O)Nc2cc(-c3cn[nH]c3)ccn2)c2ccccc21
  A = ·; B = 3; C = ·; D = ·; E = ·; F = ·
Compound: C=CCn1c(SCc2c(Cl)cccc2Cl)nnc1-c1cccc(C)c1
  A = ·; B = -9; C = ·; D = ·; E = ·; F = ·
Compound: COC(=O)c1ccc(Cn2ccc3ccc(-c4ccc5ccn(Cc6ccc(OC)cc6)c5c4)cc32)cc1
  A = ·; B = -5; C = ·; D = ·; E = ·; F = ·
Compound: O=C(NOCC1CC1)c1ccc(F)c(F)c1Nc1ccc(I)cc1Cl
  A = ·; B = 1; C = ·; D = ·; E = ·; F = ·
Compound: Cn1cc(S(=O)(=O)N2CCc3ccccc32)cc1C(=O)Nc1ccc(Cl)cc1
  A = 8.2µM*; B = -4; C = 13%; D = -16%; E = 3%; F = ·
Compound: Cc1ccc(C(=O)Nc2ccc(S(=O)(=O)N3CCc4ccccc4C3)cc2)o1
  A = ·; B = -1; C = -1%; D = -1%; E = -1%; F = -1%
Compound: Cc1ccc(C(=O)Nc2ccc(S(=O)(=O)N3CCc4ccccc43)cc2)o1
  A = 21µM*; B = -2; C = 14%; D = -23%; E = 1%; F = -2%
Compound: NC(=O)c1ccsc1NC(=O)c1ccc(S(=O)(=O)N2CCCc3ccccc32)cc1
  A = 18µM*; B = 2; C = 22%; D = ?; E = -4%; F = ·
Compound: COc1ccc(/C=C2\CC3(OC(=O)c4ccc(F)cc4)CCCN2C3)cc1 (stereo unspecified)
  A = ·; B = 4; C = ·; D = ·; E = ·; F = ·
Compound: CC(C)Cn1c(N)c(C(=O)CSc2nc3ncc(Cl)cc3[nH]2)c(=O)n(C)c1=O
  A = 12µM*; B = 1; C = ·; D = ?; E = 4%; F = ·
Compound: COc1ccc(S[C@]2(C(=O)N(C)C)CC(=O)N(c3ccccc3)[C@@H]2c2ccc(OC)cc2)cc1
  A = ·; B = 1; C = ·; D = ·; E = ·; F = ·
Compound: CCOCCCNC(=O)c1[nH]c2cc(OC)ccc2c1Sc1ccccc1
  A = 26µM*; B = 1; C = ?; D = -24%; E = 0%; F = ·
Compound: CCOCCCNC(=O)c1cc(Sc2cccc(Cl)c2)nc2ccccc12
  A = ·; B = 1; C = 20%; D = -2%; E = 4%; F = ·
Compound: CCOCCCNC(=O)c1cc(Sc2ccc(C)cc2)nc2ccccc12
  A = 23µM*; B = -2; C = 6%; D = 3%; E = -2%; F = 1%
Compound: c1ccc(Cn2c(SCC3CCC3)nnc2-c2cccnc2)cc1
  A = ·; B = -4; C = ·; D = ·; E = ·; F = ·
Compound: COc1ccccc1CNC(=O)NCCCN1CCN(c2ccc(F)cc2)CC1
  A = ·; B = 2; C = ·; D = ·; E = ·; F = ·
Compound: Cn1c(N)c(C(=O)CSc2nnc(Cc3cccs3)n2C2CC2)c(=O)n(C)c1=O
  A = 7%; B = 3; C = ·; D = 1%; E = 2%; F = ·
Compound: CCCn1c(N)c(C(=O)CSc2nnc(Cc3cccs3)n2C2CC2)c(=O)n(C)c1=O
  A = 12µM*; B = -1; C = ·; D = -4%; E = 3%; F = ·
Compound: COc1cccc(C(=O)Nc2cccc(C(=O)NCC(C)C)c2)c1
  A = 14%; B = 0; C = -17%; D = -1%; E = 1%; F = 0%
Compound: CC(C)CNC(=O)c1cccc(NC(=O)c2ccc(Cl)c([N+](=O)[O-])c2)c1
  A = 26µM*; B = -12; C = 0%; D = ?; E = ?; F = 1%
Compound: Cc1ccc(C(=O)C(=O)O)cc1C
  A = ·; B = -2; C = ·; D = ·; E = ·; F = ·
Compound: Cc1ccc(OCc2nnc(SCC(=O)Nc3ccc(S(N)(=O)=O)cc3)n2-c2ccc(Cl)cc2)cc1
  A = ·; B = 0; C = ·; D = ·; E = ·; F = ·
Compound: CC(=O)Nc1cc2nn(-c3ccccc3)nc2cc1C
  A = ?; B = -24; C = -24%; D = -6%; E = 0%; F = 1%
Compound: Cc1cc2nn(-c3ccccc3)nc2cc1NC(=O)c1cccs1
  A = 19%; B = -10; C = -35%; D = -17%; E = 7.1µM*; F = 4%
Compound: CC[C@H](CCCCCCCn1ccc2ccccc21)CCC(=O)N(c1ccccc1)c1ccccc1
  A = ·; B = -3; C = ·; D = ·; E = ·; F = ·

# Four entries out of the list above, arranged by the number in Nrf2 ARE act, highest first:
SMILES | PI4K2A inh | miR-21 reporter | Nrf2 ARE act | GALK inhibitor
CSc1ncc(Cl)c(C(=O)Nc2cccnc2)n1 | -1 | -6% | 11µM* | 4%
O=C(NNC(=O)C12CC3CC(CC(C3)C1)C2)c1cccc([N+](=O)[O-])c1 | 0 | -7% | 10µM* | -2%
Cc1cc2nn(-c3ccccc3)nc2cc1NC(=O)c1cccs1 | -10 | -35% | 7.1µM* | 4%
CC(/C=N/n1c(-c2ccc(Cl)cc2)n[nH]c1=S)=C\c1ccco1 | -5 | 7% | 2.8µM* | -1%

# Compound profiles, from the list above.
# Cc1cc2nn(-c3ccccc3)nc2cc1NC(=O)c1cccs1 as listed: Nrf2 inh: 19%; PI4K2A inh: -10; miR-21 reporter: -35%; A549 viability: -17%; Nrf2 ARE act: 7.1µM*; GALK inhibitor: 4%
# C=CCn1c(SCc2c(Cl)cccc2Cl)nnc1-c1cccc(C)c1 as listed: Nrf2 inh: ·; PI4K2A inh: -9; miR-21 reporter: ·; A549 viability: ·; Nrf2 ARE act: ·; GALK inhibitor: ·
